Experimental findings from ChEMBL document CHEMBL4715690, “The indole alkaloid meleagrin, from the olive tree endophytic fungus Penicillium chrysogenum, as a novel lead for the control of c-Met-dependent breast cancer proliferation, migration and invasion” (Bioorg Med Chem, 2016) are described below.

One test is filed under the species Homo sapiens. Briefly: Selectivity index, ratio of IC50 for recombinant human His-tagged c-MET expressed in baculovirus expression system to IC50 for recombinant human His-tagged c-MET M1250T mutant expressed in baculovirus expression system.
In the next test the test system is MDA-MB-231. Put plainly: Antimigratory activity against human MDA-MB-231 cells assessed as inhibition of HGF-induced cell migration incubated for 24 hrs by Giemsa-staining based wound healing assay. Format: functional.

SMILES strings stand for the structures.

Turning to `C=CC(C)(C)[C@@]12C=C(O)C(=O)N3/C(=C/c4cnc[nH]4)C(=O)N[C@]31N(OC)c1ccccc12`, the Ratio IC50 in the test listed under Homo sapiens came out at 2. In addition, the inhibition result in the test on MDA-MB-231 is “Dose-dependent effect”.
